Laboratory results taken from ChEMBL document CHEMBL4422672 (J Med Chem, 2019).

Legend:
Homo sapiens [1] = species on record: Homo sapiens; test: Selectivity index, ratio of IC50 for displacement of [3H]CP55,940 to human CB1 receptor expressed in cell membranes after 90 mins by liquid scintillation counting to IC50 for inhibition of human recombinant MAGL using 4-NPA as substrate after 30 mins; type: cell-based
Homo sapiens [2] = species on record: Homo sapiens; test: Selectivity index, ratio of IC50 for inhibition of human ABHD6 expressed in HEK293 cell homogenates pre-incubated for 30 mins in presence of [1,2,3-3H]2-OG by liquid scintillation spectroscopy to IC50 for inhibition of human recombinant MAGL using 4-NPA as substrate after 30 mins; type: tissue-based
Homo sapiens [3] = species on record: Homo sapiens; test: Selectivity index, ratio of IC50 for inhibition of human ABHD12 expressed in HEK293 cell homogenates pre-incubated for 30 mins in presence of [1,2,3-3H]2-OG by liquid scintillation spectroscopy to IC50 for inhibition of human recombinant MAGL using 4-NPA as substrate after 30 mins; type: tissue-based
Homo sapiens [4] = species on record: Homo sapiens; test: Selectivity index, ratio of IC50 for displacement of [3H]CP55,940 to human CB2 receptor expressed in cell membranes after 90 mins by liquid scintillation counting to IC50 for inhibition of human recombinant MAGL using 4-NPA as substrate after 30 mins; type: cell-based
Homo sapiens [5] = species on record: Homo sapiens; test: Selectivity index, ratio of IC50 for inhibition of FAAH in human U937 cell homogenates using [ethanolamine-1-3H]AEA as substrate after 15 mins by liquid scintillation spectroscopy to IC50 for inhibition of human recombinant MAGL using 4-NPA as substrate after 30 mins; type: tissue-based

Measured: Ratio IC50

CC(C)c1ccc(C(=O)C2CCN(C(=O)c3cc(O)ccc3F)CC2)cc1
> 100: all assays above
